From US5516515A, “Separation of alpha interferon receptor proteins and antibodies therefor” (priority 1990, dated 1996)

Columns and labels:
[1] = target: T1, Daudi cell receptor sites (Homo sapiens, UniProt P17181+P48551); assay: Competition experiments: displacement of 125I-IFN-alpha-2 from Daudi cells; format: binding; settings: 100 fold excess of unlabeled IFN
T1 construct: endogenous in cells; host or cells: Daudi (human lymphoblastoid) cells
T1 sequence (P48551 27-515): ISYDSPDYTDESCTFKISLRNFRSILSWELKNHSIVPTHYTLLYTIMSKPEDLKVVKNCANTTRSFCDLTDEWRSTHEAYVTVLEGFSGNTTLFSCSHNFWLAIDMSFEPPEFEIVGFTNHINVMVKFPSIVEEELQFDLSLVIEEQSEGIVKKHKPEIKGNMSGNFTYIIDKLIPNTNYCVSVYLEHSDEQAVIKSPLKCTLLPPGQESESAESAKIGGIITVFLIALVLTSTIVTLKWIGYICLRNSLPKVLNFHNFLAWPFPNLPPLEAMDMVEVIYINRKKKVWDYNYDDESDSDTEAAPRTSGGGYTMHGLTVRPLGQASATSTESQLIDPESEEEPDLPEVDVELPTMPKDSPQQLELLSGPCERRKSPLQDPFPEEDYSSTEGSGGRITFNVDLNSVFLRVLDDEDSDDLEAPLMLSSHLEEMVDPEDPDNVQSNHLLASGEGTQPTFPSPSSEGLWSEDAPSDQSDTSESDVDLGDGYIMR
T1 sequence (P17181 28-557): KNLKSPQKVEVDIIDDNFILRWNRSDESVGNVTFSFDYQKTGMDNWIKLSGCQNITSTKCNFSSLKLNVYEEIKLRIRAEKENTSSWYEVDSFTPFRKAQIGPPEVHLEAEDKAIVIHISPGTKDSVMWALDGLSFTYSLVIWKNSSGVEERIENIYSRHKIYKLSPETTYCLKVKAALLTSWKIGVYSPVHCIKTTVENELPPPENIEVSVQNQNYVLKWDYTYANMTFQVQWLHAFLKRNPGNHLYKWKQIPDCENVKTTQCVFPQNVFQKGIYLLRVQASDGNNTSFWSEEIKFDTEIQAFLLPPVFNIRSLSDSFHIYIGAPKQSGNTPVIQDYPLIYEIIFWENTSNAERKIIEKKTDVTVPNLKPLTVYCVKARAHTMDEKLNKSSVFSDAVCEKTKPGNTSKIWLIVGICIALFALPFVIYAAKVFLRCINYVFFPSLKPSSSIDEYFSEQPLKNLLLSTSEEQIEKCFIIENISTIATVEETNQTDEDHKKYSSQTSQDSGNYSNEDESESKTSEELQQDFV

[2] = tested on: human HEp-2 cells challenged with vesticular stomatitis virus (Indiana Strain); settings: reported for product purchased from Lee BioMolecular Research Inc.; cited from earlier work
[3] = tested on: human HEp-2 cells challenged with vesticular stomatitis virus (Indiana Strain); assay: cytopathic effect (CPE) assay of interferon biological (antiviral) activity; format: cell-based
Method: Ultrapure natural interferon alpha was prepared by incubating human peripheral blood cultures with Sendai virus. The culture supernatant was purified over an anti-interferon alpha column (NK-2 sepharose). […] The biological activity of interferons alpha, beta and gamma were determined by the cytopathic effect (CPE) assay on human HEp-2 cells challenged with vesticular stomatitis virus (Indiana Strain). All titers were calibrated against the NIH reference standards for alpha (#Ga23-902-503) and gamma (Gg 23-901-530) interferons. All titers are expressed as NIH reference units.

Substance: IFN beta: Human fibroblast IFN beta purchased from Lee BioMolecular Research Inc.
- reduction in the binding of 125I-IFN-alpha2 for Daudi cells [1]: more than 80%
- reported specific activity [2]: 4.7×10^5 U/mg of protein

Substance: IFN-alpha-2: Recombinant human IFN-alpha-2 synthesized in yeast and purified by immuno affinity chromatography
- specific activity ([3]; CPE assay, NIH reference units): 2×10^8 U/rag of protein

Substance: ^125 I-IFN-alpha-2: IFN-alpha-2 labeled with 125I-Bolton-Hunter reagent [reference compound]
- original antiviral activity retained after iodination ([3]; after labeling with 125I-Bolton-Hunter reagent): > 95%
